AlphaSeq binding of Ab-14 heavy chain variants to a spike HR2 peptide

Source: Li et al. 2023 (doi:10.1038/s41467-023-39022-2), MIT Lincoln Laboratory and A-Alpha Bio; data file from the FLAb repository.

Antigen: PDVDLGDISGINAS, a 14-residue peptide of the SARS-CoV-2 spike HR2 region.

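The parent was found by panning a naive human phage display library on the peptide. This is the validation round: designs drawn from the data on random variants, tested in the same kind of assay. Their group label is 14H_GP_HC (GP: Gaussian process model; HC: hill climbing; a sequence that several methods proposed may carry one label only). In AlphaSeq, yeast of one mating type display the scFv and yeast of the other type display the target. Pairs that bind mate more often; barcode pairs of the diploids are counted by sequencing. A regression on co-assayed BCL2-family reference pairs converts the normalised counts of each replicate to an apparent Kd. There are six technical replicates.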

Parent: Ab-14, a human scFv built as VH, the linker GGGGSGGGGSGGGGS, VL. Only the CDRs of the heavy chain vary.
VH: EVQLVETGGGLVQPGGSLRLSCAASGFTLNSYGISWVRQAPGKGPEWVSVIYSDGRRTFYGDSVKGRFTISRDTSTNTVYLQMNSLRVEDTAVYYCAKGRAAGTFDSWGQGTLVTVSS
VL: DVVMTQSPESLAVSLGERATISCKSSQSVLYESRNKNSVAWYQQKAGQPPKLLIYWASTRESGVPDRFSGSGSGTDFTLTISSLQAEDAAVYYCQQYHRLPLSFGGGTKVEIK

Positions count from residue 1 of the parent VH; T28E puts E in place of T.
Values are log10 of the apparent Kd in nM; lower means stronger binding.
The mean shown is taken over the replicates in which the pair was detected.
An entry "ND" has no value in the source: the pair was not observed among the diploids in that replicate. This suggests poor binding but is not conclusive.
The authors averaged sequences with at least three values out of six and counted those with two or fewer as poor binders.

changes | log10 Kd, replicates | mean log10 Kd (nM) | signal with controls
T28E/G61E/R100Q/A101L | 0.79 0.53 0.55 0.56 0.97 0.61 | 0.67 | 1/18 (2.30)
S31E/D62E/G103V/S107A | ND ND ND ND ND ND | ND | 0/18
T28W/S31D/F59L/G61I | ND ND ND ND ND ND | ND | 0/18
S31D/F59M/A101E | 0.81 0.61 0.24 0.06 0.21 0.31 | 0.37 | 0/18
T28S/G61D/R100M/A101V | -0.09 -0.01 0.07 -0.19 -0.20 0.17 | -0.04 | 0/18
T28N/S31E/F59Q/G61I | -0.03 0.36 0.02 0.19 0.13 0.46 | 0.19 | 0/18
N30E/G61S/R100L | 0.90 0.92 0.78 -0.02 0.87 1.03 | 0.75 | 0/18
S31E/G61Q/S63D/A101F | 0.75 0.74 0.91 0.47 0.76 0.77 | 0.73 | 0/18
G26L/S31E/G61H/A101T | 0.56 1.06 0.28 ND 1.81 ND | 0.93 | 0/18
G61I/A101W | ND ND ND ND 1.94 ND | 1.94 | 0/18
N30K/S53A/F105N | ND ND ND ND ND ND | ND | 1/18 (1.97)
S31D/S107I | -0.04 0.02 -0.04 0.15 -0.11 -0.15 | -0.03 | 0/18
T28S/S31M/F59W/G61I | ND ND 1.55 ND ND 2.48 | 2.01 | 1/18 (2.94)
S31E/S53A/S107L | -0.04 -0.05 0.05 -0.06 -0.17 0.14 | -0.02 | 0/18
S31E/G61S/R100H/S107K | -1.28 ND ND -0.93 ND ND | -1.11 | 0/18
T28C/S31D/F59W/G61I | ND ND ND ND ND ND | ND | 0/18
T28S/S31W/F59M/G61I | ND ND ND ND ND ND | ND | 0/18
T28V/S31D/G61I/A101L | ND 1.83 1.47 1.06 1.89 ND | 1.56 | 0/18
T28S/S31E/G61H/S107Q | 0.27 -0.22 -0.25 -0.40 0.54 1.00 | 0.16 | 0/18
T28G/G61D/R100Q/A101T | 0.13 0.10 -0.11 0.23 -0.14 0.34 | 0.09 | 0/18
G61Q/S63D/R100E/D106K | ND 3.52 1.15 1.61 1.88 2.22 | 2.08 | 1/18 (2.38)
S31E/S63A/S107Q | 0.19 -0.42 -0.02 -0.95 0.16 -0.20 | -0.21 | 0/18
T28S/S31Q/F59A/G61Q | -0.48 -0.89 -0.44 -0.95 -0.56 -0.41 | -0.62 | 0/18
S31E/G61S/R100Q/A101G | 1.73 1.28 1.65 1.49 1.76 1.72 | 1.60 | 0/18
T28S/S31E/G61D/A101N | 0.21 -0.16 0.15 0.76 0.15 0.28 | 0.23 | 0/18
A101T/T104S/D106T/S107V | ND ND ND ND ND ND | ND | 0/18
T28D/G61T/G103V | ND ND ND ND ND ND | ND | 1/18 (1.23)
S31E/G61T/A101T/S107I | 0.39 -0.06 -0.06 -0.31 0.03 0.08 | 0.01 | 1/18 (3.05)
S31E/T104S/D106R/S107T | ND ND ND ND 1.54 ND | 1.54 | 1/18 (2.56)
S31D/G61I/S63R/R100N | 1.67 0.62 0.62 1.00 1.06 1.79 | 1.13 | 0/18
S53A/R100V/D106K/S107M | -0.10 0.35 0.49 0.47 0.29 0.29 | 0.30 | 0/18
G61T/R100E/A101Q | ND ND ND ND ND ND | ND | 0/18
S31E/F59Q/G61S | 1.13 0.65 0.89 0.66 0.82 1.37 | 0.92 | 1/18 (1.91)
G61S/A102V/S107T | ND ND ND ND ND ND | ND | 0/18
F27N/S31E/G61T/A101C | ND ND ND ND ND ND | ND | 0/18
G26S/S53A/D106K/S107M | ND ND ND ND ND ND | ND | 0/18
S53A/A101T/D106K/S107I | ND ND ND ND ND ND | ND | 0/18

Again, the first 3 entries without any signal:

changes	log10 Kd, replicates	mean log10 Kd (nM)	signal with controls
S31E/D62E/G103V/S107A	ND ND ND ND ND ND	ND	0/18
T28W/S31D/F59L/G61I	ND ND ND ND ND ND	ND	0/18
N30K/S53A/F105N	ND ND ND ND ND ND	ND	1/18 (1.97)

Values of this round are not directly comparable with the first-round values of the same sequences.
Background: pairings of all heavy chain designs with three empty control strains gave a value in 1% of cases (median 2.08, 5th percentile 0.84). Values in that range, when seen in few replicates, are hard to tell from nonspecific mating. For each scFv, signals with the empty controls are counted beside the result, with their mean in brackets.
Of ten entries with the parent sequence, four were seen in most replicates (averages 0.34 to 2.37), three in one and three in none, so single entries are noisy.